Results: patent US20100269215A1, “Tfla gene which can degrade toxoflavin and its chemical derivatives and transgenic organisms expressing tfla gene” (SNU R&DB Foundation, priority 2006, published 2010)

What was measured:
[1] = tested on: Arabidopsis Col-0, transgenic plants with toxoflavin-resistant gene tflA; conditions: 20 uM toxoflavin
[2] = target: Paenibacillus polymyxa JH2 TflA protein, wild type, N-terminal His-tagged (His-TflA), SEQ ID NO: 2 (Paenibacillus polymyxa, UniProt E3SET7); conditions: toxoflavin 80-200 μM; 50 mM sodium phosphate pH 6.5; MnCl2 and DTT; Lineweaver-Burk plot

## Cn1ncnc2c(=O)n(C)c(=O)nc1-2 [toxoflavin]
[1]
  growth: normal growth
[2]
  Vmax: −0.45 U/mg
